Drawing on ChEMBL document CHEMBL1133625, “Crystal structures of human factor Xa complexed with potent inhibitors” (J Med Chem, 2000), this text covers Ki for 1 compound.

The target in this experiment is T1, Trypsin II (Bos taurus, UniProt Q29463).
T1 sequence (Q29463 whole entry): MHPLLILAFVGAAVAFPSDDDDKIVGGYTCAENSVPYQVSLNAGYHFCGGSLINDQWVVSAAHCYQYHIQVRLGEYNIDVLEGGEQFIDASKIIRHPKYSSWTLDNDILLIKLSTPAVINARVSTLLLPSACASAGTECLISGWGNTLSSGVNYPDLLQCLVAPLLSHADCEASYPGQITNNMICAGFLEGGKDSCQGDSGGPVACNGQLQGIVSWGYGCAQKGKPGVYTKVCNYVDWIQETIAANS
The experiment is described as follows: Binding affinity on bovine pancreatic trypsin enzyme.

Each structure is given as a SMILES string.

As a reminder, the Ki is the equilibrium dissociation constant of an inhibitor or competing ligand from its target. Consider `N=C(N)c1ccc(O)c(CN2CC[C@H](NS(=O)(=O)c3cc4ncccc4s3)C2=O)c1`, for which the Ki turned out to be 1000 nM.
